According to patent US20240398963A1 (priority 2021, published 2024):

Format: physicochemical
Conditions: 10 mM PBS buffer (pH=7.4), 37° C., 100 rpm shaker; free drug by HPLC, average release per day
Description: The drug release and stability experiments were run using the test compounds. About 2.5±1.0 mg/mL (with regard to conjugate) solution of each test compound was prepared with 10 mM PBS buffer (pH=7.4) in Millipore Amicon® Ultra-0.5 ml 30 k Ultrafiltration centrifuge tube. The solution was kept swelling for 1 h at room temperature and then placed in a shaker at 100 rpm, 37° C. for continuous experiment. At the same time point of each day, samples were centrifuged at 10000 rpm for 1 h. The aliquot was transferred to HPLC vial for analysis. An 0.4 mL of 10 mM PBS buffer was added into the centrifuge tube and continue the experiment.
For the HPLC analysis at each time point, the peak areas of all relevant peaks from the chromatograms were retrieved and the concentration of free drug was calculated. Average release of free drug was calculated based on the sum of free drug and numbers of experiment days. The computing equation is as below.
The sample degradation rate was calculated based on the concentration and degree of substitution (NMR) for conjugated drug with regard to the initial starting point of the experiment (at t=0). The computing equation is as below.

Q: With “Conjugate of HA and (1S,2S)-2-aminocyclohexyl (2-((6αS,6βR,7S,8αS,8βS,11αR,12αS,12βS)-6β-fluoro-7-hydroxy-6α,8α,10,10-tetramethyl-4-oxo-1,2,4,6α,6β,7,8,8α,11α,12,12α,12β-dodecahydro-8βH-naphtho[2′,1′:4,5]indeno[1,2-d][1,3]dioxol-8β-yl)-2-oxoethyl) carbonate [Example 30]” as the substance, how does the Release rate read?
A: 0.94 %/day

Q: For “Conjugate of HA and 2-((6αS,6βR,7S,8αS,8βS,11αR,12αS,12βS)-6β-fluoro-7-hydroxy-6α,8α,10,10-tetramethyl-4-oxo-1,2,4,6α,6β,7,8,8α,11α,12,12α,12β-dodecahydro-8βH-naphtho[2′,1′:4,5]indeno[1,2-d][1,3]dioxol-8β-yl)-2-oxoethyl azetidine-3-carboxylate [Example 7]”, which Release rate is on record?
A: 14.25 %/day

Q: For “Conjugate of CS and 2-((8S,9S,10R,11S,13S,14S,17R)-11,17-dihydroxy-10,13-dimethyl-3-oxo-6,7,8,9,10,11,12,13,14,15,16,17-dodecahydro-3H-cyclopenta[a]phenanthren-17-yl)-2-oxoethyl 4-aminobutanoate [Example 37]”, which Release rate is on record?
A: 1.17 %/day

Q: For “Conjugate of HA and 4-(aminomethyl)benzyl (2-((6αS,6βR,7S,8αS,8βS,11αR,12αS,12βS)-6β-fluoro-7-hydroxy-6α,8α,10,10-tetramethyl-4-oxo-1,2,4,6α,6β,7,8,8α,11α,12,12α,12β-dodecahydro-8βH-naphtho[2′,1′:4,5]indeno[1,2-d][1,3]dioxol-8β-yl)-2-oxoethyl) carbonate [Example 15]”, which Release rate is on record?
A: 0.97 %/day

Q: Which Release rate does the source give for “Conjugate of HA and 6-aminohexyl (2-((6αS,6βR,7S,8αS,8βS,11αR,12αS,12βS)-6β-fluoro-7-hydroxy-6α,8α,10,10-tetramethyl-4-oxo-1,2,4,6α,6β,7,8,8α,11α,12,12α,12β-dodecahydro-8βH-naphtho[2′,1′:4,5]indeno[1,2-d][1,3]dioxol-8β-yl)-2-oxoethyl) carbonate [Example 27]” here?
A: 0.34 %/day

Q: For “Conjugate of HA and 4-aminobutyl (2-((6αS,6βR,7S,8αS,8βS,11αR,12αS,12βS)-6β-fluoro-7-hydroxy-6α,8α,10,10-tetramethyl-4-oxo-1,2,4,6α,6β,7,8,8α,11α,12,12α,12β-dodecahydro-8βH-naphtho[2′,1′:4,5]indeno[1,2-d][1,3]dioxol-8β-yl)-2-oxoethyl) carbonate [Example 3]”, which Release rate is on record?
A: 0.25 %/day

Q: For “Conjugate of HA and 2-((6αS,6βR,7S,8αS,8βS,11αR,12αS,12βS)-6β-fluoro-7-hydroxy-6α,8α,10,10-tetramethyl-4-oxo-1,2,4,6α,6β,7,8,8α,11α,12,12α,12β-dodecahydro-8βH-naphtho[2′,1′:4,5]indeno[1,2-d][1,3]dioxol-8β-yl)-2-oxoethyl 5-aminopentanoate [Example 18]”, which Release rate is on record?
A: 0.90 %/day

Q: For “Conjugate of HA and methyl (S)-2-amino-3-(4-(((2-((6αS,6βR,7S,8αS,8βS,11αR,12αS,12βS)-6β-fluoro-7-hydroxy-6α,8α,10,10-tetramethyl-4-oxo-1,2,4,6α,6β,7,8,8α,11α,12,12α,12β-dodecahydro-8βH-naphtho[2′,1′:4,5]indeno[1,2-d][1,3]dioxol-8β-yl)-2-oxoethoxy)carbonyl)oxy)phenyl)propanoate [Example 33]”, which Release rate is on record?
A: 22.57 %/day

Q: Which Release rate does the source give for “Conjugate of HA and 5-aminopentyl (2-((2S,6αS,6βR,7S,8αS,8βS,11αR,12αS,12βS)-2,6β-difluoro-7-hydroxy-6α,8α,10,10-tetramethyl-4-oxo-1,2,4,6α,6β,7,8,8α,11α,12,12α,12β-dodecahydro-8βH-naphtho[2′,1′:4,5]indeno[1,2-d][1,3]dioxol-8β-yl)-2-oxoethyl) carbonate [Example 25]” here?
A: 1.69 %/day

Q: For “Conjugate of HA and 2-((6αS,6βR,7S,8αS,8βS,11αR,12αS,12βS)-6β-fluoro-7-hydroxy-6α,8α,10,10-tetramethyl-4-oxo-1,2,4,6α,6β,7,8,8α,11α,12,12α,12β-dodecahydro-8βH-naphtho[2′,1′:4,5]indeno[1,2-d][1,3]dioxol-8β-yl)-2-oxoethyl 3-aminopropanoate [Example 5]”, which Release rate is on record?
A: 4.03 %/day

Q: Which Release rate does the source give for “Conjugate of HA and 2-((6αS,6βR,7S,8αS,8βS,11αR,12αS,12βS)-6β-fluoro-7-hydroxy-6α,8α,10,10-tetramethyl-4-oxo-1,2,4,6α,6β,7,8,8α,11α,12,12α,12β-dodecahydro-8βH-naphtho[2′,1′:4,5]indeno[1,2-d][1,3]dioxol-8β-yl)-2-oxoethyl (2-aminoethyl)carbamate [Example 14]” here?
A: 0.01 %/day

Q: Which Release rate does the source give for “Conjugate of HA and 2-((6αS,6βR,7S,8αS,8βS,11αR,12αS,12βS)-6β-fluoro-7-hydroxy-6α,8α,10,10-tetramethyl-4-oxo-1,2,4,6α,6β,7,8,8α,11α,12,12α,12β-dodecahydro-8βH-naphtho[2′,1′:4,5]indeno[1,2-d][1,3]dioxol-8β-yl)-2-oxoethyl (7-azaspiro[3.5]nonan-2-yl) carbonate [Example 31]” here?
A: 1.10 %/day

Q: Which Release rate does the source give for “Conjugate of HA and 5-aminopentyl (2-((8S,9R,10S,11S,13S,14S,16S,17R)-9-fluoro-11,17-dihydroxy-10,13,16-trimethyl-3-oxo-6,7,8,9,10,11,12,13,14,15,16,17-dodecahydro-3H-cyclopenta[a]phenanthren-17-yl)-2-oxoethyl) carbonate [Example 88]” here?
A: 3.19 %/day

Q: For “Conjugate of HA and 2-(2-aminoethoxy)ethyl (2-((6αS,6βR,7S,8αS,8βS,11αR,12αS,12βS)-6β-fluoro-7-hydroxy-6α,8α,10,10-tetramethyl-4-oxo-1,2,4,6α,6β,7,8,8α,11α,12,12α,12β-dodecahydro-8βH-naphtho[2′,1′:4,5]indeno[1,2-d][1,3]dioxol-8β-yl)-2-oxoethyl) carbonate [Example 32]”, which Release rate is on record?
A: 3.68 %/day

Q: For “Conjugate of HA and 2-aminoethyl (2-((6αS,6βR,7S,8αS,8βS,11αR,12αS,12βS)-6β-fluoro-7-hydroxy-6α,8α,10,10-tetramethyl-4-oxo-1,2,4,6α,6β,7,8,8α,11α,12,12α,12β-dodecahydro-8βH-naphtho[2′,1′:4,5]indeno[1,2-d][1,3]dioxol-8β-yl)-2-oxoethyl) carbonate [Example 17]”, which Release rate is on record?
A: 2.19 %/day

Q: With “Conjugate of HA and 2-((6αS,6βR,7S,8αS,8βS,11αR,12αS,12βS)-6β-fluoro-7-hydroxy-6α,8α,10,10-tetramethyl-4-oxo-1,2,4,6α,6β,7,8,8α,11α,12,12α,12β-dodecahydro-8βH-naphtho[2′,1′:4,5]indeno[1,2-d][1,3]dioxol-8β-yl)-2-oxoethyl 4-(aminomethyl)benzoate [Example 13]” as the substance, how does the Release rate read?
A: 0.14 %/day

Q: Which Release rate does the source give for “Conjugate of HA and 4-(2-aminoethyl)phenyl (2-((6αS,6βR,7S,8αS,8βS,11αR,12αS,12βS)-6β-fluoro-7-hydroxy-6α,8α,10,10-tetramethyl-4-oxo-1,2,4,6α,6β,7,8,8α,11α,12,12α,12β-dodecahydro-8βH-naphtho[2′,1′:4,5]indeno[1,2-d][1,3]dioxol-8β-yl)-2-oxoethyl) carbonate [Example 29]” here?
A: 23.90 %/day

Q: For “Conjugate of HA and 6-aminohexyl (2-((2S,6αS,6βR,7S,8αS,8βS,11αR,12αS,12βS)-2,6β-difluoro-7-hydroxy-6α,8α,10,10-tetramethyl-4-oxo-1,2,4,6α,6β,7,8,8α,11α,12,12α,12β-dodecahydro-8βH-naphtho[2′,1′:4,5]indeno[1,2-d][1,3]dioxol-8β-yl)-2-oxoethyl) carbonate [Example 26]”, which Release rate is on record?
A: 0.63 %/day

Q: For “Conjugate of HA and 2-((6αS,6βR,7S,8αS,8βS,11αR,12αS,12βS)-6β-fluoro-7-hydroxy-6α,8α,10,10-tetramethyl-4-oxo-1,2,4,6α,6β,7,8,8α,11α,12,12α,12β-dodecahydro-8βH-naphtho[2′,1′:4,5]indeno[1,2-d][1,3]dioxol-8β-yl)-2-oxoethyl glycinate [Example 1]”, which Release rate is on record?
A: 14.04 %/day

Q: Which Release rate does the source give for “Conjugate of HA and 2-((8S,9S,10R,13S,14S,17R)-17-hydroxy-10,13-dimethyl-3,11-dioxo-6,7,8,9,10,11,12,13,14,15,16,17-dodecahydro-3H-cyclopenta[a]phenanthren-17-yl)-2-oxoethyl 4-aminobutanoate [Example 34]” here?
A: 3.01 %/day

Q: With “Conjugate of HA and 2-((2S,6αS,6βR,7S,8αS,8βS,11αR,12αS,12βS)-2,6β-difluoro-7-hydroxy-6α,8α,10,10-tetramethyl-4-oxo-1,2,4,6α,6β,7,8,8α,11α,12,12α,12β-dodecahydro-8βH-naphtho[2′,1′:4,5]indeno[1,2-d][1,3]dioxol-8β-yl)-2-oxoethyl 3-aminopropanoate [Example 12]” as the substance, how does the Release rate read?
A: 3.30 %/day

Q: With “Conjugate of HA and 2-((2S,6αS,6βR,7S,8αS,8βS,11αR,12αS,12βS)-2,6β-difluoro-7-hydroxy-6α,8α,10,10-tetramethyl-4-oxo-1,2,4,6α,6β,7,8,8α,11α,12,12α,12β-dodecahydro-8βH-naphtho[2′,1′:4,5]indeno[1,2-d][1,3]dioxol-8β-yl)-2-oxoethyl 5-aminopentanoate [Example 24]” as the substance, how does the Release rate read?
A: 1.64 %/day
